Our source for the inhibition of aggregation values is PubChem BioAssay AID483 (Columbia University Molecular Screening Center, 2006).

The entries are a selection whose mix differs from that of the whole data set. The source made the active and inactive calls.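 Rule for the calls: active = visual image review flags a hit and inhibition of aggregation exceeds 20%; inconclusive = visual hit but inhibition at or below 20%; inactive = no hit on visual image review.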

The nature of the assay: inhibitors of mutant huntingtin aggregation, primary screen, imaging, exon1htt(103Q)mCFP cells, high-content imaging (AID 483).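 Note: compound exposure lasted 3 days before fixation.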 The settings on record: exon1htt(103Q)mCFP cell line, aggregate imaging; at 2 µM; active compounds read high.
As for `O=C(COc1ccccc1)OC1CN2CCC1CC2` (stereo not given), the inhibition of aggregation is inactive: -2.6%.
Consider `COP1(=S)c2c(C)nn(CCC#N)c2N=C(c2ccc(F)cc2)N1C` (stereo not given), for which the inhibition of aggregation is inactive: -11.4%.
As for `Cc1nn(-c2ccccc2)c2c1P(=O)(N1CCOCC1)N(C)C(c1ccccc1)=N2` (stereo not given), the inhibition of aggregation is inactive: -16%.
As to `CCOP1(=S)c2c(C)nn(CCC#N)c2N=C(c2ccccc2F)N1C` (stereo not given), the inhibition of aggregation was inactive: 10.7%.
For `O=P(Nc1nccs1)(c1ccccc1)c1ccccc1` the value was inactive: 9.8%.
